The target in this experiment is Aurora-2 (Homo sapiens (Human), UniProt O14965). Put plainly: Biochemical assay for inhibitors of Aurora-2 kinase activity. To be noted: 2.5 nM enzyme, 10 microM ATP, 8 microM substrate; read-out: Aur2 IC50 (μM) Biochemical assay.

The chains behind the UniProt entries cited, without tags or fusion partners.
UniProt O14965, whole entry, species assumed: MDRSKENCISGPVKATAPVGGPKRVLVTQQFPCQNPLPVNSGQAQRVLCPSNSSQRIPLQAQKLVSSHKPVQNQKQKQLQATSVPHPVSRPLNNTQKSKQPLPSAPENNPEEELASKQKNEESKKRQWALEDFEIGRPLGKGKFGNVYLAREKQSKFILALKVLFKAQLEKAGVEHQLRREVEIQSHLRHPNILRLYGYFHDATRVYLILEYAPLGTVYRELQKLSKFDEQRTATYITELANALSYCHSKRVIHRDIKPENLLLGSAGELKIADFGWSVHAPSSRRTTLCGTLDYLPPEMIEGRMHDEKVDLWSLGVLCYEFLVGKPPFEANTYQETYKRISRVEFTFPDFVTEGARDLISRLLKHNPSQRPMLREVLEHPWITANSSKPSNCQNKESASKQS

The structures appear in SMILES notation.

The record followed here is patent publication US9029356B2, “Substituted indazole derivatives active as kinase inhibitors” (Nerviano Medical Services S.R.L., priority 2007, dated 2015).

One may read the IC50 as the midpoint of a concentration-inhibition curve.

`CN1CCN(c2ccc(C(=O)Nc3n[nH]c4ccc(Cc5cc(F)cc(F)c5)cc34)c(NC3CCCCC3)c2)CC1` [Cpd 18, 2-Cyclohexylamino-N-[5-(3,5-difluoro-benzyl)-1H-indazol-3-yl]-4-(4-methyl-piperazin-1-yl)-benzamide]: the IC50 was 3.23 µM.
